The target in assay [1] is T1, HEK-293 cells transfected with dox-inducible human wild type FGFR3 (Homo sapiens (Human), UniProt P22607). Kind of assay: FGFR3 pERK cell assay. In kind it is cell-based. As to conditions: HEK-293 dox-inducible FGFR3, 1 hour compound, 100 ng/ml FGF-acidic; maximum concentration 5 μM. The procedure:
FGFR3 pERK Cell Assay: • HEK-293 cells transfected with dox-inducible human wild type FGFR3 (SEQ ID NO: 5) were plated in a collagen or poly-D-lysine coated 96 well flat bottom plates at 4×10^5 cells/well in complete DMEM medium containing 10% FBS and 1 μg/ml doxycycline and allowed to attach for 24 h at 37° C., 5% CO2. Cells were treated with compound using 1:3 serial dilutions with a maximum final concentration of 5 μM. Compound was incubated on cells for 1 hour at 37° C., 5% CO2. Cells were then stimulated with a final concentration of 100 ng/ml human FGF-acidic (R&D Systems Cat number 232-FA/CF) for 5 minutes at 37° C., 5% CO2. Medium was removed, and cells were lysed with lysis buffer containing phosphatase and protease inhibitors. Phospho ERK1/2 was measured using the Meso Scale Discovery sandwich assay (Meso Scale Discovery cat. no. K151DWD). The assay captures phospho ERK1/2 and detects with a sulfo-tagged total ERK1/2 antibody. The chemiluminescent signal was read on the Sector Imager Plate reader. 100 POC was determined using no test compounds and 0 POC was determined using a control compound. The POC values were fit to a 4-parameter logistic curve as a function of the concentration of the compound, and the IC50 value is the point where the curve crosses 50 POC.

Protein sequences, listed by entry. Tags and fused reporters are not part of them. Residues count along the entry.
UniProt P22607, 23-806: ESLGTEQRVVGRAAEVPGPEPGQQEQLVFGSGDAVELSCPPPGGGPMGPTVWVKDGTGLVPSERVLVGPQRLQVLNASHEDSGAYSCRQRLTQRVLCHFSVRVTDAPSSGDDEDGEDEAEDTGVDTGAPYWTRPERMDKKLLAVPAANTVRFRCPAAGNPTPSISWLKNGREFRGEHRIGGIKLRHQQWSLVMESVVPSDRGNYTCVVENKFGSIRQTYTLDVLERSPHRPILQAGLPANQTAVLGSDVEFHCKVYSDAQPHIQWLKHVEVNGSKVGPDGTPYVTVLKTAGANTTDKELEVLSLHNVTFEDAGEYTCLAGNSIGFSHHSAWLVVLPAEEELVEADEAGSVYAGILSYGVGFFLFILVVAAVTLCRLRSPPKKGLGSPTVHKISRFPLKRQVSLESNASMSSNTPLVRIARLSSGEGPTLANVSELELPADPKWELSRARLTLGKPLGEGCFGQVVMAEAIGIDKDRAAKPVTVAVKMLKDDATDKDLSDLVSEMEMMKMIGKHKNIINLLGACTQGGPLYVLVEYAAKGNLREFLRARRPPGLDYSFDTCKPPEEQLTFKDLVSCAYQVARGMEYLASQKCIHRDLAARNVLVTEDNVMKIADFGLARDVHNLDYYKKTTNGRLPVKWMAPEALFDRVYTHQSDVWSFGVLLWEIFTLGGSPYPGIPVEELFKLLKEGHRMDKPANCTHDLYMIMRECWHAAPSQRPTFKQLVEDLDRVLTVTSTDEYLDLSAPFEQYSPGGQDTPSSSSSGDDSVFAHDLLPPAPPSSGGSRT

Assay [2] deals with T1, HEK-293 cells transfected with dox-inducible human wild type FGFR3. Description: FGFR3 pFGFR cell assay (ELISA). In kind it is cell-based. The following applies: HEK-293 dox-inducible FGFR3, 1 hour compound, 100 ng/ml FGF-acidic. As to the method: FGFR3 pFGFR Cell Assay: • HEK-293 cells transfected with dox-inducible human wild type FGFR3 (SEQ ID NO: 5) were plated in a collagen or poly-D-lysine coated 96 well flat bottom plates at 4×10^5 cells/well in complete DMEM medium containing 10% FBS and 1 μg/ml doxycycline and allowed to attach for 24 h at 37° C., 5% CO2. Cells were treated with compound using 1:3 serial dilutions with a top final concentration of 5 μM. Compound was incubated on cells for 1 hour at 37° C., 5% CO2. Cells were then stimulated with a final concentration of 100 ng/ml human FGF-acidic for 5 minutes at 37° C., 5% CO2. Medium was removed and cells were lysed with lysis buffer containing phosphatase and protease inhibitors. Phospho FGFR3 was measured by ELISA (R&D Systems cat DYC2719). The ELISA captures total FGFR3 and detects total phospho tyrosine. Optical density was measured for each well using a Versamax reader at a wavelength of 450 nm. 100 POC was determined using no test compounds and 0 POC was determined using a control compound. The POC values were fit to a 4-parameter logistic curve as a function of the concentration of the compound, and the IC50 value is the point where the curve crosses 50 POC.

Consider `C=CS(=O)(=O)N[C@H]1C[C@@H](C(=O)N2CCC(n3cc(-c4cc(OC)c5c(C#N)cnn5c4)cn3)CC2)C1` [Example 193, N-((1s,3s)-3-(4-(4-(3-cyano-4-methoxypyrazolo[1,5-a]pyridin-6-yl)-1H-pyrazol-1-yl)piperidine-1-carbonyl)cyclobutyl) ethenesulfonamide], for which the IC50 in assay [1] turned out to be 47 nM; in assay [2], 53 nM.

Regarding `C=CS(=O)(=O)N[C@H]1C[C@H](C(=O)N2CCC(n3cc(-c4cc(OC)c5c(C#N)cnn5c4)cn3)CC2)C1` [Example 194, N-((1r,3r)-3-(4-(4-(3-cyano-4-methoxypyrazolo[1,5-a]pyridin-6-yl)-1H-pyrazol-1-yl)piperidine-1-carbonyl)cyclobutyl) ethenesulfonamide], the IC50 in assay [1] was 58 nM; in assay [2], 43 nM.

The record behind these values is patent US12180207B2 (ARRAY BIOPHARMA INC., priority 2018, dated 2024).
